Assay results: article PMC9808001 (2022)

Amino acid sequences for entries named in this document (tags omitted). Residues count along the entry.
UniProt P61019, 1-172: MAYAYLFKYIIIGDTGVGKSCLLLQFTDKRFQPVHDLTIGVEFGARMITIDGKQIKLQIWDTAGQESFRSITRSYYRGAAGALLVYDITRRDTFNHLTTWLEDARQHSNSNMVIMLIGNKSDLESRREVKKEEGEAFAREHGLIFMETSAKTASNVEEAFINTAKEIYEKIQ
UniProt P61018, 3-174: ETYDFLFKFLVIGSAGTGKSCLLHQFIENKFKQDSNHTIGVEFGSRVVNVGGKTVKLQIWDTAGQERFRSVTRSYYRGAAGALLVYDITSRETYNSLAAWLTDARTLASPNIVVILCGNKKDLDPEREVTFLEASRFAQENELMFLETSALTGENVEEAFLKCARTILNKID

What was measured:
Assay in all cases: BLI
[1] = molecular target: T1, RAB8A (Homo sapiens (Human), UniProt P61006)
T1 chain: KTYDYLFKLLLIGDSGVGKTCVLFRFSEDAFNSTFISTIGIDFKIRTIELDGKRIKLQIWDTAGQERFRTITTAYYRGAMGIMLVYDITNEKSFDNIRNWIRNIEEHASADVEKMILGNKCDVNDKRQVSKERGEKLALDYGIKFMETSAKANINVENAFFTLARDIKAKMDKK

[2] = molecular target: T2, RAB25 (Homo sapiens (Human), UniProt P57735)
T2 chain: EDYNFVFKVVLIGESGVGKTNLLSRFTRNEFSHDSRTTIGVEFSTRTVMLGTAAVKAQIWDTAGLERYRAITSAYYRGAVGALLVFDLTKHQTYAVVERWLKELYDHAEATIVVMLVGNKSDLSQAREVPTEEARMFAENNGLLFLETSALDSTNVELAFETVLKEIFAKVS

[3] = molecular target: RAB2A (Homo sapiens (Human), UniProt P61019)
[4] = molecular target: T3, RAB11A (Homo sapiens (Human), UniProt P62491)
T3 chain: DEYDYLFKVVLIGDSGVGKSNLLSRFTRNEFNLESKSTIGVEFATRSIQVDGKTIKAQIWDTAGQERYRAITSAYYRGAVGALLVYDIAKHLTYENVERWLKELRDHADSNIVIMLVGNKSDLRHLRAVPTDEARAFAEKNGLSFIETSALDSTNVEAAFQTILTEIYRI

[5] = molecular target: RAB4B (Homo sapiens (Human), UniProt P61018)

B1: WDR44 (protein)
chain: VMGPQRPRSNSGRELTDEEILASVMIKNLDTGEEIPLSLAEEKLPTGINPLTLHIM
Kd [1]: > 500 nM
Kd [2]: > 500 nM
Kd [3]: > 500 nM
Kd [4]: 75 nM
Kd [5]: > 500 nM
